In PubChem BioAssay AID1851 (National Center for Advancing Translational Sciences (NCATS), 2009):
The list shows a part of the results, in another mix than the full data. Records with an inconclusive call do not appear. Activity calls are given as the source filed them. Calls follow the shape of the dose curve; as a rule, active = well fitted curve in the direction sought with a large enough effect; inconclusive = small, poorly fitted or top-dose-only effect, or effect the other way; inactive = no such curve, though single readings can be large or run the other way.

Chains of the proteins cited; added tags and fusions are not shown.
UniProt P33261, whole entry, looked up: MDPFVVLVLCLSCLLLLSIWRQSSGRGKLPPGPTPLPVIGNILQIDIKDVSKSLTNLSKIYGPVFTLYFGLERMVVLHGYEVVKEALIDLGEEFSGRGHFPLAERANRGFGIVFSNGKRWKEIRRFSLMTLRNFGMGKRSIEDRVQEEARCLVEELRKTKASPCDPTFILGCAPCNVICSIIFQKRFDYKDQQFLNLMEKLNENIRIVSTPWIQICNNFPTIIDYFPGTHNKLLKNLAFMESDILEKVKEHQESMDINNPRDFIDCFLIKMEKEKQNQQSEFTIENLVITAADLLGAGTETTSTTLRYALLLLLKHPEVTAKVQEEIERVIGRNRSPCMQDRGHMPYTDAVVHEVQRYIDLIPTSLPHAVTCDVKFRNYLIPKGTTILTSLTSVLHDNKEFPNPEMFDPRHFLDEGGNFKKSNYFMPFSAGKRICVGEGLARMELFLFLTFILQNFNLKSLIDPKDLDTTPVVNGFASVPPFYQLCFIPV

Biological target: Cytochrome P450 2C19 (Homo sapiens) (UniProt P33261)
Test: Cytochrome panel assay with activity outcomes
Conditions: recombinant CYP, pro-luciferin dealkylation, luminescence; p450-cyp2c19

Row | Structure (SMILES) | AC50
1 | COc1cc(N[C@@H](C)CCCN)c2ncccc2c1 | active: 3.98 µM
